Assay results: US9890152B2 (Genentech, Inc., priority 2012, dated 2018)

Protein sequences, listed by entry. Tags and fused reporters are not part of them. Residues count along the entry.
UniProt P00533, 25-1210 T790M/L858R limits assumed: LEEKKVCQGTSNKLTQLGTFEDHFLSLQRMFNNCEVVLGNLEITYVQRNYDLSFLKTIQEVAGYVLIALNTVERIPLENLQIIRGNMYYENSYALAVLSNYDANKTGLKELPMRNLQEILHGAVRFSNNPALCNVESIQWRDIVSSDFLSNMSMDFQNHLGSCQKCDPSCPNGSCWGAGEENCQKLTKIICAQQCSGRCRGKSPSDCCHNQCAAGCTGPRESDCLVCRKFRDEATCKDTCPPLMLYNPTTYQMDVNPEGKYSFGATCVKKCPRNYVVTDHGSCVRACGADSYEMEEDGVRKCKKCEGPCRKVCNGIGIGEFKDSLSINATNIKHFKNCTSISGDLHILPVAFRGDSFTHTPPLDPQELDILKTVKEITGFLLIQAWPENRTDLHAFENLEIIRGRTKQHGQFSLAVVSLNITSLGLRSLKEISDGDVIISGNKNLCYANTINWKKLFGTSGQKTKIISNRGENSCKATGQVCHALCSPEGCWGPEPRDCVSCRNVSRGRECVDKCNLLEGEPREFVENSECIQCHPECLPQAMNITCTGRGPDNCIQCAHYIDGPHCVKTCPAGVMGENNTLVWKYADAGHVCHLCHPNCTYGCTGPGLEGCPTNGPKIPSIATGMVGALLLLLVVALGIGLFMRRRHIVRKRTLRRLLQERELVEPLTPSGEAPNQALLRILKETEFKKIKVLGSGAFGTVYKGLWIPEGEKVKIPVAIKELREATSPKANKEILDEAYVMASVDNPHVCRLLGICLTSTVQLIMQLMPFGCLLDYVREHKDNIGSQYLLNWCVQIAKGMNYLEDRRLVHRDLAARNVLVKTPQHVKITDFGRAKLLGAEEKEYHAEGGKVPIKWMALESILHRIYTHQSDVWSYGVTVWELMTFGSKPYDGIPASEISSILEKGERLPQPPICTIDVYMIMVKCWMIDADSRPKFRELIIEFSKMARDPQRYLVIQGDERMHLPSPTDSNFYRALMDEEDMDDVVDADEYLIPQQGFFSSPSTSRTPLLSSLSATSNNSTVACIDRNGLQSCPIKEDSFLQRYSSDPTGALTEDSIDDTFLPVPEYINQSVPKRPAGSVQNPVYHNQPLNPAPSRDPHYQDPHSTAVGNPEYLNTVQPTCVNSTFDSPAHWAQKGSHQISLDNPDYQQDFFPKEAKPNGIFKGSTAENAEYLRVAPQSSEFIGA

Assays:
EGFR T790M L858R = EGFR T790M L858R (Homo sapiens, UniProt P00533, L858R/T790M); experiment: biochemical; conditions: EGFR(T790M/L858R) Ki (μM), 5 μM ATP, 30 min, room temperature; apparent Ki (Morrison) converted by Cheng-Prusoff, Km of ATP 1.3 μM
[1] = tested on: H1975 (EGFR T790M/L858R) cell proliferation; experiment: H1975 proliferation assay (Cell Titer-Glo); assay type: cell-based; conditions: Homo sapiens, NCI-H1975 cells, 72 hour, read-out: H1975 antiproliferative EC50

Ki (EGFR T790M L858R) | EC50 [1] | Structure (SMILES)
0.00146 µM | 588 nM | CCNc1ncc(-c2nccc(Nc3cc4c(cn3)nc(C)n4C(C)C)n2)s1 [Example 295, [2-(2-Ethylaminothiazol-5-yl)pyrimidin-4-yl](1-isopropyl-2-methyl-1H-imidazo[4,5-c]pyridin-6-yl)amine]
0.00147 µM | 876 nM | Cc1c(C(=O)NC2CCOCC2)c2cnc(Nc3ccnc(-c4cnn(S(=O)(=O)C5CC5)c4)n3)cc2n1C(C)C [Example 335, 6-((2-(1-(Cyclopropylsulfonyl)-1H-pyrazol-4-yl)pyrimidin-4-yl)amino)-1-isopropyl-2-methyl-N-(tetrahydro-2H-pyran-4-yl)-1H-pyrrolo[3,2-c]pyridine-3-carboxamide]
0.00111 µM | 346 nM | C[C@H](n1c([C@@H](C)O)nc2cnc(Nc3ccnc(-c4cnn(S(=O)(=O)C5CC5)c4)n3)cc21)C(F)(F)F [Example 572, (R)-1-[6-[2-(1-Cyclopropanesulfonyl-1H-pyrazol-4-yl)-pyrimidin-4-ylamino]-1-((S)-2,2,2-trifluoro-1-methylethyl)-1H-imidazo[4,5-c]pyridin-2-yl]-ethanol]
0.00174 µM | 587 nM | CNc1ncc(-c2nccc(Nc3cc4c(cn3)nc(C)n4C(C)C)n2)s1 [Example 312, (1-Isopropyl-2-methyl-1H-imidazo[4,5-c]pyridin-6-yl)-[2-(2-methylaminothiazol-5-yl)pyrimidin-4-yl]amine]
0.00346 µM | 7300 nM | COC1(CO)CCN(c2nccc(Nc3cc4c(cn3)c(-c3cnn(C(C)(C)C(N)=O)c3)cn4C(C)C)n2)CC1 [Example 445, 2-(4-(6-(2-(4-(hydroxymethyl)-4-methoxypiperidin-1-yl)pyrimidin-4-ylamino)-1-isopropyl-1H-pyrrolo[3,2-c]pyridin-3-yl)-1H-pyrazol-1-yl)-2-methylpropanamide]
0.0054 µM | 2960 nM | CCNC(=O)c1cn(C(C)C)c2cc(Nc3ccnc(N4CCC(OC)CC4)n3)ncc12 [Example 57, N-Ethyl-1-isopropyl-6-((2-(4-methoxypiperidin-1-yl)pyrimidin-4-yl)amino)-1H-pyrrolo[3,2-c]pyridine-3-carboxamide]
0.0429 µM | 3360 nM | COC1CCN(c2nccc(Nc3cc4c(cn3)nc(C(F)F)n4C(C)C)n2)CC1 [Example 110, 2-(difluoromethyl)-1-isopropyl-N-(2-(4-methoxypiperidin-1-yl)pyrimidin-4-yl)-1H-imidazo[4,5-c]pyridin-6-amine]
0.0108 µM | 808 nM | CC1(C)COc2nc3cnc(Nc4ccnc(-c5cnn(S(=O)(=O)C6CC6)c5)n4)cc3n21 [Example 280, [2-(1-Cyclopropanesulfonyl-1H-pyrazol-4-yl)-pyrimidin-4-yl]-(3,3-dimethyl-2,3-dihydro-1-oxa-3a,6,8-triazacyclopenta[a]inden-5-yl)-amine]
0.00163 µM | 581 nM | CCNC(=O)c1cn(C(C)CC)c2cc(Nc3ccnc(N4CC[C@@H](O)[C@@H](F)C4)n3)ncc12 (single isomer, unassigned) [Example 369]
0.00116 µM | 357 nM | CC(C)n1c(Cl)c(C(=O)NC2CCOCC2)c2cnc(Nc3ccnc(-c4cnn(S(=O)(=O)C5CC5)c4)n3)cc21 [Example 262, 2-Chloro-6-(2-(1-(cyclopropylsulfonyl)-1H-pyrazol-4-yl)pyrimidin-4-ylamino)-1-isopropyl-N-(tetrahydro-2H-pyran-4-yl)-1H-pyrrolo[3,2-c]pyridine-3-carboxamide]
0.00106 µM | 548 nM | CC(C)n1cc(C(=O)NC2CCOCC2)c2cnc(Nc3ccnc(-c4cnn(S(=O)(=O)C5CC5)c4)n3)cc21 [Example 396]
0.000842 µM | 1270 nM | CCC(C)n1cc(C(=O)NC2CCOCC2)c2cnc(Nc3ccnc(N4CCC(O)C(C)(C)C4)n3)cc21 (mixture of isomers) [Example 383, 1-(sec-butyl)-6-((2-(4-hydroxy-3,3-dimethylpiperidin-1-yl)pyrimidin-4-yl)amino)-N-(tetrahydro-2H-pyran-4-yl)-1H-pyrrolo[3,2-c]pyridine-3-carboxamide]
0.001 µM | 1220 nM | CC(C)n1cc(C(N)=O)c2cnc(Nc3ccnc(-c4cnn(S(=O)(=O)C5CC5)c4)n3)cc21 [Example 51, 6-((2-(1-(Cyclopropylsulfonyl)-1H-pyrazol-4-yl)pyrimidin-4-yl)amino)-1-isopropyl-1H-pyrrolo[3,2-c]pyridine-3-carboxamide]
0.0032 µM | 1580 nM | CC(C)n1c(OCCO)nc2cnc(Nc3ccnc(-c4cnn(S(=O)(=O)C5CC5)c4)n3)cc21 [Example 282, 2-{6-[2-(1-Cyclopropanesulfonyl-1H-pyrazol-4-yl)pyrimidin-4-ylamino]-1-isopropyl-1H-imidazo[4,5-c]pyridin-2-yloxy}ethanol]
0.0626 µM | 9000 nM | COCC(C)(C)n1c(C)nc2cnc(Nc3ccnc(N4CCC(OC)CC4)n3)cc21 [Example 164, [1-(2-Methoxy-1,1-dimethylethyl)-2-methyl-1H-imidazo[4,5-c]pyridin-6-yl]-[2-(4-methoxypiperidin-1-yl)pyrimidin-4-yl]amine]
0.000702 µM | 440 nM | CC(=O)Nc1cn(C(C)C)c2cc(Nc3ccnc(-c4cnn(S(=O)(=O)C5CC5)c4)n3)ncc12 [Example 327, N-(6-((2-(1-(Cyclopropylsulfonyl)-1H-pyrazol-4-yl)pyrimidin-4-yl)amino)-1-isopropyl-1H-pyrrolo[3,2-c]pyridin-3-yl)acetamide]

Ki (EGFR T790M L858R) | EC50 [1] | Structure (SMILES)
0.0119 µM | 4430 nM | COC1CCN(c2nccc(Nc3cc4c(cn3)c(-c3nnc(C)o3)cn4C(C)C)n2)CC1 [Example 59, 1-Isopropyl-N-(2-(4-methoxypiperidin-1-yl)pyrimidin-4-yl)-3-(5-methyl-1,3,4-oxadiazol-2-yl)-1H-pyrrolo[3,2-c]pyridin-6-amine]
0.00225 µM | 783 nM | C[C@H](n1c([C@@H](C)O)nc2cnc(Nc3ccnc(N4CCC(O)C(F)C4)n3)cc21)C(F)(F)F (mixture of isomers) [Example 296, cis-3-Fluoro-1-{4-[2-((R)-1-hydroxyethyl)-1-((S)-2,2,2-trifluoro-1-methylethyl)-1H-imidazo[4,5-c]pyridin-6-ylamino]pyrimidin-2-yl}piperidin-4-ol]
0.00344 µM | 739 nM | O=S(=O)(C1CC1)n1cc(-c2nccc(Nc3cc4c(cn3)nc(CO)n4-c3ccccc3)n2)cn1 [Example 475, (6-(2-(1-(cyclopropylsulfonyl)-1H-pyrazol-4-yl)pyrimidin-4-ylamino)-l-phenyl-1H-imidazo[4,5-c]pyridin-2-yl)methanol]
0.00101 µM | 487 nM | CCC(C)n1cc(C(=O)NC2CCOCC2)c2cnc(Nc3ccnc(-c4cnn(S(=O)(=O)C5CC5)c4)n3)cc21 (single isomer, unassigned; (-)) [Example 322, (−)-1-(sec-butyl)-6-((2-(1-(cyclopropylsulfonyl)-1H-pyrazol-4-yl)pyrimidin-4-yl)amino)-N-(tetrahydro-2H-pyran-4-yl)-1H-pyrrolo[3,2-c]pyridine-3-carboxamide]
0.00159 µM |  | CCC(C)n1cc(C(=O)NC2CCCOC2)c2cnc(Nc3ccnc(N4CCC(O)C(C)(C)C4)n3)cc21 (stereo not drawn) [Example 374, 1-(sec-butyl)-6-((2-(4-hydroxy-3,3-dimethylpiperidin-1-yl)pyrimidin-4-yl)amino)-N-(tetrahydro-2H-pyran-3-yl)-lH-pyrrolo[3,2-c]pyridine-3-carboxamide]
0.0609 µM |  | COC1CCN(c2nccc(Nc3cc4c(cn3)nc(C)n4C(C)CC#N)n2)CC1 (stereo not drawn) [Example 349, 3-(6-((2-(4-Methoxypiperidin-1-yl)pyrimidin-4-yl)amino)-2-methyl-1H-imidazo[4,5-c]pyridin-1-yl)butanenitrile]
0.00133 µM |  | CC(C)n1cc(-c2cn3c(n2)CNCC3)c2cnc(Nc3ccnc(-c4cnn(S(=O)(=O)C5CC5)c4)n3)cc21 [Example 442, N-(2-(1-(cyclopropylsulfonyl)-1H-pyrazol-4-yl)pyrimidin-4-yl)-1-isopropyl-3-(5,6,7,8-tetrahydroimidazo[1,2-a]pyrazin-2-yl)-1H-pyrrolo[3,2-c]pyridin-6-amine]
0.00307 µM |  | COC1CCN(c2nccc(Nc3cc4c(cn3)c(-c3cnn(CCN5CCOCC5)c3)cn4C(C)C)n2)CC1 [Example 412, 1-isopropyl-N-(2-(4-methoxypiperidin-1-yl)pyrimidin-4-yl)-3-(1-(2-morpholinoethyl)-1H-pyrazol-4-yl)-1H-pyrrolo[3,2-c] pyridin-6-amine]
0.0455 µM |  | Cc1nc2cnc(Nc3ccnc(-c4cnn(CC5CCNC5)c4)n3)cc2n1C(C)C (stereo not drawn) [Example 344, 1-Isopropyl-2-methyl-N-(2-(1-(pyrrolidin-3-ylmethyl)-1H-pyrazol-4-yl)pyrimidin-4-yl)-1H-imidazo[4,5-c]pyridin-6-amine]
1.05 µM |  | CCNc1nccc(Nc2cc3c(cn2)ncn3C(C)C)n1 [Example 221]
0.114 µM |  | COC1CCN(c2nccc(Nc3cc4c(cn3)nc(C)n4[C@H]3CC[C@H](C#N)C3)n2)CC1 (relative stereo) [Example 351, (trans)-3-(6-((2-(4-methoxypiperidin-1-yl)pyrimidin-4-yl)amino)-2-methyl-1H-imidazo[4,5-c]pyridin-1-yl)cyclopentanecarbonitrile]
0.0848 µM |  | COC[C@H](C)n1c(C)nc2cnc(Nc3ccnc(N4CCC(OC)CC4)n3)cc21 [Example 490, [1-((S)-2-Methoxy-1-methylethyl)-2-methyl-1H-imidazo [4,5-c]pyridin-6-yl]-[2-(4-methoxypiperidin-1-yl)pyrimidin-4-yl]amine]
0.0398 µM |  | Cc1nc2cnc(Nc3ccnc(-c4cnn(CCCN)c4)n3)cc2n1C(C)C [Example 430, N-(2-(1-(3-aminopropyl)-1H-pyrazol-4-yl)pyrimidin-4-yl)-1-isopropyl-2-methyl-1H-imidazo[4,5-c]pyridin-6-amine]
1.25 µM |  | CC(C)n1cnc2cnc(Nc3ccnc(N4CCC5(CCCCN5)C4)n3)cc21 (stereo not drawn) [Example 226]
0.136 µM |  | CC(C)n1cnc2cnc(Nc3ccnc(N4CCC(CO)CC4)n3)cc21 [Example 187]
